Earlier results on five substances are cited in US7115708B2 (priority 2001, dated 2006).

Protein sequences, listed by entry. Tags and fused reporters are not part of them. Lines headed by an entry give the natural chain unless they say otherwise; changes in a name come on top.
UniProt P30872: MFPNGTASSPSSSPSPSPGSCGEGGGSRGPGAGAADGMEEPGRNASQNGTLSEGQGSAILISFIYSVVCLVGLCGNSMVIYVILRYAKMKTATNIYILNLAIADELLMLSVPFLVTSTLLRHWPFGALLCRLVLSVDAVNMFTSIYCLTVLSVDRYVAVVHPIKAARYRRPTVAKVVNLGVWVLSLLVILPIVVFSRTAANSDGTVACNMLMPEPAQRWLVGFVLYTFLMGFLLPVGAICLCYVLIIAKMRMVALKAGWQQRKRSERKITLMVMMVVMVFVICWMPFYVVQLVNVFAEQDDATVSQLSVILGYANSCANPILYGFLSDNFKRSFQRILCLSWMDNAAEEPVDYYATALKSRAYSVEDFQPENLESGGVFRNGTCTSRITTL
UniProt P31391: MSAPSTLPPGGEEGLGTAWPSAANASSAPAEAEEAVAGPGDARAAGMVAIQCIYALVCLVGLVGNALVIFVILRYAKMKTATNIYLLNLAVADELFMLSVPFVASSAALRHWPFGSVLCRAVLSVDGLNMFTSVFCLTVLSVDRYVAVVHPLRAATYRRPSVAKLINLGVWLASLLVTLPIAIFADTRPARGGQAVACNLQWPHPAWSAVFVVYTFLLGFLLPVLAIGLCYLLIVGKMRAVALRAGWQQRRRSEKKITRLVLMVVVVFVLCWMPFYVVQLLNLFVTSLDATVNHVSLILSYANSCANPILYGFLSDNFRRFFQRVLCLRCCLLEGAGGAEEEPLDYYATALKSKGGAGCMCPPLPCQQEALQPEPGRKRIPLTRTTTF
UniProt P32745: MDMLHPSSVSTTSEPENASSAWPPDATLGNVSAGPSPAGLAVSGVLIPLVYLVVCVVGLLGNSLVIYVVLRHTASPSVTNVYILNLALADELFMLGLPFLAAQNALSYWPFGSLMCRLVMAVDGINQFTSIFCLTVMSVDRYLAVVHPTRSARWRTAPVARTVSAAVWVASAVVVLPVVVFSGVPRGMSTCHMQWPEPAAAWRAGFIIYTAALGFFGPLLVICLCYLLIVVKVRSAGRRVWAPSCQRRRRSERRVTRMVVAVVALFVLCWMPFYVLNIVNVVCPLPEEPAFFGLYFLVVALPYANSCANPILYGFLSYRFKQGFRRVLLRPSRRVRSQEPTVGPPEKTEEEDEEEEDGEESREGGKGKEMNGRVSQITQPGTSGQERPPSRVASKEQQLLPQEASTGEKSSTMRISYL
UniProt P30874: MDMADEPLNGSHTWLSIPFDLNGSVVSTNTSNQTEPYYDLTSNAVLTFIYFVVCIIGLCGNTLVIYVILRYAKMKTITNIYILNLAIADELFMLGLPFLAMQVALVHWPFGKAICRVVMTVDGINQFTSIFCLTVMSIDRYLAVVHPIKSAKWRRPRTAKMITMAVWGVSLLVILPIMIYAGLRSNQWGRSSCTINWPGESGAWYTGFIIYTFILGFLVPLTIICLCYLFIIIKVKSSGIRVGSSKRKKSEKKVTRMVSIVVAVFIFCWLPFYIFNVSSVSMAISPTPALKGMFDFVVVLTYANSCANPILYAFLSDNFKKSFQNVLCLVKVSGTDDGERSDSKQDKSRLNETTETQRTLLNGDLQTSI
UniProt P35346: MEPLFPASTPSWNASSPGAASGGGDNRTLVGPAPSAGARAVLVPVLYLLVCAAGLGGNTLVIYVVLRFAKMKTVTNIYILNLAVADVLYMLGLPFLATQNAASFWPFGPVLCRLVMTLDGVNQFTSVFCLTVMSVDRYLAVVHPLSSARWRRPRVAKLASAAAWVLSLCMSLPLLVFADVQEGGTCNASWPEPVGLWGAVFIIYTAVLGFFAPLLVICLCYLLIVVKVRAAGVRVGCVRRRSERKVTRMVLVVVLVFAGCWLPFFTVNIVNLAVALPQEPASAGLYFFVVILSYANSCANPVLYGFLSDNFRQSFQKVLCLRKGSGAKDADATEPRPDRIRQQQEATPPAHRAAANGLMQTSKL
UniProt P41968: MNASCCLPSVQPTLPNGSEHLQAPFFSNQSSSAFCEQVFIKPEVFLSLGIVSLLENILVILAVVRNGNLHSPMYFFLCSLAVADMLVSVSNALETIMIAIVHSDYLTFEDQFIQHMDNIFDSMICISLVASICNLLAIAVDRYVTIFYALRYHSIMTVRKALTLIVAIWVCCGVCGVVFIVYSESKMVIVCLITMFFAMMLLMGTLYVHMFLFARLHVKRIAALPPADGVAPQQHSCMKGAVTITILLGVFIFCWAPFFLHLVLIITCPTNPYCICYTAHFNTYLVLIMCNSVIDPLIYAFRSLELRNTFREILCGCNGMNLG
UniProt P32245: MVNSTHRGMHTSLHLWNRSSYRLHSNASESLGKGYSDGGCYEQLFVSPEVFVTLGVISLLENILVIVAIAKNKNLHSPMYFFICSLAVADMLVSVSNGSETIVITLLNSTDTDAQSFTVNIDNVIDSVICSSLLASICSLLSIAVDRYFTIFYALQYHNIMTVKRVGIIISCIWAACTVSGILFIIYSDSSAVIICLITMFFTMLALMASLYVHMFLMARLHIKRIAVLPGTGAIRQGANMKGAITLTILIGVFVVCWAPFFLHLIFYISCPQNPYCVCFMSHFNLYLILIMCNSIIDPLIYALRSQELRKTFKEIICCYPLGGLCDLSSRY
UniProt P33032: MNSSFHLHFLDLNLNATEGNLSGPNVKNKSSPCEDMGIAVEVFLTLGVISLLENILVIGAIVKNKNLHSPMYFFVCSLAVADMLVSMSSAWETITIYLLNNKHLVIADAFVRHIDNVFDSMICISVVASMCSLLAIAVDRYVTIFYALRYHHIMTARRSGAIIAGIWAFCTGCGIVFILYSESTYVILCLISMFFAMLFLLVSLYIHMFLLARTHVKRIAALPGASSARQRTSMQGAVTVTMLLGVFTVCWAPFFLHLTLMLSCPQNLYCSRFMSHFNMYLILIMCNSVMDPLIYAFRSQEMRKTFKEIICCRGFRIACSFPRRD
UniProt Q99705: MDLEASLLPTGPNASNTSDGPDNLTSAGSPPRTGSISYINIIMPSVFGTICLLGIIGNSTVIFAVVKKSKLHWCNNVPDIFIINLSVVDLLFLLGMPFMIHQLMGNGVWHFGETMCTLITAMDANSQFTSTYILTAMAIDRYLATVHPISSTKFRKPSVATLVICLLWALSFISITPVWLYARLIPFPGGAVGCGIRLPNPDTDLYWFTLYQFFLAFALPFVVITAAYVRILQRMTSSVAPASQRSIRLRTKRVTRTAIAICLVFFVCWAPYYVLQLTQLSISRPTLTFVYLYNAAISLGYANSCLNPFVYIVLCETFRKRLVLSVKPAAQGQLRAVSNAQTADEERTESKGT

One data set addresses h-SSTR1 (Homo sapiens, UniProt P30872). As to conditions: cited from earlier work.
For another data set, the target named is h-SSTR4 (Homo sapiens, UniProt P31391). Particulars: cited from earlier work.
Another data set has as its target h-SSTR3 (Homo sapiens, UniProt P32745). As to conditions: cited from earlier work.
Another data set deals with h-SSTR2 (Homo sapiens, UniProt P30874). As to conditions: cited from earlier work.
The target in another data set is h-SSTR5 (Homo sapiens, UniProt P35346). As to conditions: cited from earlier work.
The target of another data set is Melanocortin MC3 (Homo sapiens, UniProt P41968). Particulars: read-out: Kd of the radioligand (historical value); Human recombinant HEK-293 cells; cited from earlier work.
A further data set relates to Melanocortin MC1. As to conditions: read-out: Kd of the radioligand (historical value); Human recombinant CHO cells; cited from earlier work.
Another data set concerns the target Melanocortin MC4 (Homo sapiens, UniProt P32245). Particulars: read-out: Kd of the radioligand (historical value); Human recombinant HEK-293 cells; cited from earlier work.
A further data set deals with Melanocortin MC5 (Homo sapiens, UniProt P33032). Particulars: read-out: Kd of the radioligand (historical value); Human recombinant HEK-293 cells; cited from earlier work.
The next data set concerns the target Somatostatin sst1 (Homo sapiens, UniProt P30872). Particulars: read-out: Kd of the radioligand (historical value); Human recombinant CHO-K1; cited from earlier work.
The next data set has as its target Somatostatin sst3 (Homo sapiens, UniProt P32745). As to conditions: read-out: Kd of the radioligand (historical value); Human recombinant CHO-K1; cited from earlier work.
For the next data set, the target named is Somatostatin sst5 (Homo sapiens, UniProt P35346). As to conditions: read-out: Kd of the radioligand (historical value); Human recombinant HEK-293 EBNA cells; cited from earlier work.
In the next data set the target is Somatostatin sst4 (Homo sapiens, UniProt P31391). Particulars: read-out: Kd of the radioligand (historical value); Human recombinant CHO-K1; cited from earlier work.
The target of a further data set is Somatostatin sst2 (Homo sapiens, UniProt P30874). As to conditions: read-out: Kd of the radioligand (historical value); Human recombinant CHO-K1; cited from earlier work.
For the next data set, the target named is MCH (h) (Homo sapiens, UniProt Q99705). As to conditions: read-out: Kd of the radioligand (historical value); Human recombinant CHO cells; cited from earlier work.

The term Kd denotes a measure of binding affinity in units of concentration. For the substance ^111In-DTPA-DPhe1-octreotide, the “binding to h-SSTR1 (in words)” value on h-SSTR1 is recorded as “does not bind”. In addition, on h-SSTR4, the “binding to h-SSTR4 (in words)” value is listed as “does not bind”. The figures for the dissociation constant (Kd) on h-SSTR3 (moderate affinity), at h-SSTR2 (high affinity) and at h-SSTR5 (high affinity) were 10 to 100 nM, 0.1 to 5 nM and 0.1 to 5 nM, respectively.
With ^111In/^90Y-DOTA-lanreotide, at h-SSTR1 (lower affinity), the dissociation constant (Kd) is 200 nM. Moreover, on h-SSTR4, the “binding to h-SSTR4 (in words)” value is “high affinity”. Besides, at h-SSTR3, the “binding to h-SSTR3 (in words)” value was “high affinity”. Also, the “binding to h-SSTR2 (in words)” value on h-SSTR2 is “high affinity”. In addition, the “binding to h-SSTR5 (in words)” value at h-SSTR5 was “high affinity”.
For the substance ^125I NDP-αMSH, the Kd was 0.53 nM on Melanocortin MC3, 0.62 nM in the data set with Melanocortin MC1, 0.5 nM on Melanocortin MC4 and 0.53 nM at Melanocortin MC5.
For ^125I Somatostatin-14, the Kd on Somatostatin sst1 was 1.9 nM; at Somatostatin sst3, 0.79 nM; on Somatostatin sst5, 0.5 nM; at Somatostatin sst4, 0.87 nM; on Somatostatin sst2, 0.034 nM.
On to ^125I [Phe^13, Tyr^19]-MCH, for which the dissociation constant (Kd) at MCH (h) was 0.05 nM.
